Experimental data: paper PMC11342948 (International Journal of Nanomedicine, 2024)

Experiment: In vivo pharmacokinetics, plasma and brain
Parameters: species or system mice
Details: intravenous 13 mg/kg

AUC0-t (brain): 0.017 ± 0.005 µg·h/g
Cmax (brain): 0.056 ± 0.027 µg/g
MRT0-t (brain): 30.5 ± 5.7 min
T1/2 (brain): 33.7 ± 6.84 min
area under the curve (AUC0-t) (plasma (as printed in text)): 3.501 ± 0.733 µg·h/g
AUC0-t (plasma): 3501 ± 733 ng·h/mL
Cmax (plasma): 12422 ± 3041 ng/mL
MRT0-t (plasma): 20.9 ± 0.18 min
T1/2 (plasma): 22.8 ± 0.9 min
Substance: Echinacoside [Free ECH]
